Data reported in patent US20230256106A1, “DRUG DELIVERY SYSTEM FOR LOCALLY DELIVERING THERAPEUTIC AGENTS AND USES THEREOF” (priority 2020, published 2023).

Settings: about 2.5±1.0 mg/mL conjugate in 10 mM PBS buffer (pH=7.4), 37° C., shaker 100 rpm; daily ultrafiltration (30 k), free drug by HPLC; average release of free drug per day

For “conjugate of phenyl N-(4-aminobutyl)-P-(4-(((3R,4R)-1-(2-cyanoacetyl)-4-methylpiperidin-3-yl)(methyl) amino)-7H-pyrrolo[2,3-d]pyrimidin-7-yl)phosphonamidate and HA”, which “Release rate (%/day)” value is on record?
The value was 1.03%/day.
